# PubChem BioAssay AID686964 (The Scripps Research Institute Molecular Screening Center, 2013)
# By UniProt entry, the sequences of proteins in these tests, tags left out.
# UniProt Q9UBB5, whole entry, looked up: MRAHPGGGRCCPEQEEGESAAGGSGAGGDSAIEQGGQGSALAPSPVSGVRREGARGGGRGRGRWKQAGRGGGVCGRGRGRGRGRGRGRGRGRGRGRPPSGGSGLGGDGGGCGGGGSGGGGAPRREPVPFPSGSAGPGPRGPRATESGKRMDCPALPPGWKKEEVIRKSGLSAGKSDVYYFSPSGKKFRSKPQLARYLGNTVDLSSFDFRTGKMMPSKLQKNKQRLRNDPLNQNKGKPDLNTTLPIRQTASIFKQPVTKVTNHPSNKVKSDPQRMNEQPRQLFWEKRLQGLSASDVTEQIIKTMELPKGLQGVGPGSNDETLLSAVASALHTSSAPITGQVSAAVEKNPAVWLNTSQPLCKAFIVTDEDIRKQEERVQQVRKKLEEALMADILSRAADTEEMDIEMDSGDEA
# The entries are a selection whose mix differs from that of the whole data set. Active and inactive are the calls of the source. Rule as the data show it: active = inhibition above about 13%; inactive = the rest.
# Target: Methyl-CpG-binding domain protein 2 (Homo sapiens) (UniProt Q9UBB5)
# Test: MBD2-DBD methyl-oligonucleotide interaction blockers – biochemical, TR-FRET, DNA-binding domain, human, primary screen (AID 686964)
# Conditions: MBD2 binding to methylated oligonucleotide, at 4.4 µM, stronger effect = higher value
row,Compound,inhibition
1,Cc1ccc(NP(=O)(Oc2cccc(C)c2)Oc2cccc(C)c2)nc1,inactive: 3.68%
2,c1ccc(-c2nn[nH]n2)c(-c2nn[nH]n2)c1,inactive: -2.03%
3,O=C(NC1CCS(=O)(=O)C1)NP(=S)(Oc1ccccc1)Oc1ccccc1 (centres undefined),inactive: 7.25%
4,CCNC(=S)/N=C(\N)N[N+](=O)[O-],inactive: 2.1%
5,O=P1(N(CCCl)CCCl)OCCC2CCCCN21 (centres undefined),inactive: -1.41%
6,CCC(=O)N1C2C3N(C(=O)CC)C1C1N(C(=O)CC)C(C(N1C(=O)CC)N3C(=O)CC)N2C(=O)CC,inactive: 1.26%
7,O=C(OC1CN2CCC1CC2)c1ccccc1 (centres undefined),inactive: 4.51%
8,Cc1ccc(OP(=O)(Nc2ccccn2)Oc2ccc(C)cc2)cc1,inactive: -0.06%
9,CC(=O)NC(SC(=S)N(CC(C)C)CC(C)C)C(Cl)(Cl)Cl (centres undefined),inactive: -2.18%
10,COC(=O)c1cc2c(s1)N=C(c1ccccc1)N(C)P2(=O)N1CCOCC1 (centres undefined),inactive: -4.57%
11,CN(C)C(=O)Oc1noc2ccccc12,inactive: 2.37%
12,O=c1c2cc([N+](=O)[O-])ccc2[nH]c2c([N+](=O)[O-])cc([N+](=O)[O-])cc12,inactive: 2.09%
13,Cc1ccccc1OP(=O)(Nc1ccccn1)Oc1ccccc1C,inactive: 0.65%
14,CC(NC(=O)COC(=O)C(O)(c1ccccc1)c1ccccc1)c1ccccc1 (centres undefined),inactive: 1.28%
15,CCOc1ccc(C2=NCC(CBr)S2)cc1 (centres undefined),inactive: 0.46%
16,O=P1(Nc2nc3ccc(Cl)cc3s2)COc2ccccc2O1 (centres undefined),inactive: -4.63%
17,CC(C)(C)C(=O)NC(Sc1ccccc1)C(Cl)(Cl)Cl (centres undefined),inactive: 5.44%
18,CCc1cc(O)c([N+](=O)[O-])c(C)c1[N+](=O)[O-],inactive: -0.91%
19,C[C@@H]1C=CCP(=O)(Oc2ccccc2)O1 (some centres undefined),inactive: -1.74%
20,C[C@H]1OP(=O)(Oc2ccccc2)C[C@@H]2O[C@@H]21 (some centres undefined),inactive: 1.74%
21,Cc1ccccc1CN(C)C(=O)COC(=O)C(O)(c1ccccc1)c1ccccc1,inactive: 5.42%
22,COC(=O)C1(C)COP(=O)(NCc2ccccc2)OC1 (centres undefined),inactive: 0.51%

row,Compound,inhibition
1,N#C/C(=C\c1ccc(N(CCBr)CCBr)cc1)C(N)=O,inactive: -5.66%
2,CC(=O)c1ccc(N2CC2c2ccncc2)cc1 (centres undefined),inactive: -0.64%
3,CC(=O)Nc1ccc(Oc2c([N+](=O)[O-])cc([N+](=O)[O-])cc2[N+](=O)[O-])cc1,inactive: -8.58%
4,CC(=O)Nc1ccc([As](=O)(O)O)c(O)c1,inactive: 0.52%
5,O=P(Nc1nccs1)(c1ccccc1)c1ccccc1,inactive: 1.97%
6,CC(C)C(=O)NC(Sc1ccccc1)C(Cl)(Cl)Cl (centres undefined),inactive: -4.28%
7,c1nnnn1CCn1cnnn1,inactive: 3.06%
8,CN(C)C1(CNC(=O)c2ccc(Cl)c(S(N)(=O)=O)c2)CCCCC1,inactive: 1.09%
9,O=P(Nc1ccccn1)(c1ccc(Br)cc1)c1ccc(Br)cc1,inactive: 1.16%
10,Nc1ccc(CCCCOc2ccccc2)cc1,inactive: -0.7%
11,COc1ccc(N)c([N+](=O)[O-])c1[N+](=O)[O-],inactive: -22.2%
12,C[C@H]1OP(=O)(Oc2ccccc2)[C@H](O)[C@H](O)[C@H]1N=[N+]=[N-] (some centres undefined),inactive: 1.4%
13,O=P(Nc1nc2ccccc2s1)(c1ccccc1)c1ccccc1,inactive: 0.44%
14,O=[As](O)(c1ccccc1)c1ccc(O)cc1,inactive: -0.69%
15,O=[N+]([O-])c1ncn(CCn2cnc([N+](=O)[O-])n2)n1,inactive: 0.56%
16,CC(=O)NC(SC(=S)N(C)C)C(Cl)(Cl)Cl (centres undefined),inactive: 0.19%
17,O=C(OC1CN2CCC1CC2)c1cccc(Cl)c1 (centres undefined),inactive: -1.64%
18,Nc1ccc([As](=O)(O)c2ccc([N+](=O)[O-])cc2)cc1,inactive: 3.42%
19,C(Cc1nn[nH]n1)Cc1nn[nH]n1,inactive: 0.03%
20,C/C(N)=N\P(=O)(OCc1ccccc1)OCc1ccccc1,inactive: -7.63%
21,O=P1(N(CCCl)CCCl)OCCCS1 (centres undefined),inactive: 2.42%
22,O=C(Nc1cc([As](=O)(O)O)ccc1O)c1ccccc1,inactive: -4.66%

row,Compound,inhibition
1,O=[N+]([O-])c1ncn(CCn2ncnc2[N+](=O)[O-])n1,inactive: -1.81%
2,CC(C)(C)C(=O)NC(Sc1ccncn1)C(Cl)(Cl)Cl (centres undefined),inactive: 1.47%
3,O=C(O)CNc1ccc([As](=O)(O)O)cc1,inactive: 1.52%
4,O=[N+]([O-])c1cccc(NC2=NCC(CBr)S2)c1 (centres undefined),inactive: 8.84%
5,COC(=O)C1(C)COP(=O)(Nc2ccccc2)OC1 (centres undefined),inactive: 1.78%
6,COc1ccc(C2=NCC(CBr)S2)cc1 (centres undefined),inactive: -2.54%
7,O=[N+]([O-])c1cc([N+](=O)[O-])c(CCNc2ccccc2)c([N+](=O)[O-])c1,inactive: -1.87%
8,CCc1nc2c(n1)c1c(non1O)c1c2no[n+]1[O-],inactive: -14%
9,Cc1ccc(NP(=O)(Oc2ccccc2)Oc2ccccc2)nc1,inactive: -0.85%
10,CC(=O)N1C2C3N(C(C)=O)C1C1N(C(C)=O)C(C(N1C(C)=O)N3C(C)=O)N2C(C)=O,inactive: -0.67%
11,O=[N+]([O-])c1cccc2n[nH]nc12,inactive: -1.52%
12,CCN(/C(=N/P(=O)(N1CCOCC1)N1CCOCC1)N1CCOCC1)c1ccc(OC)cc1,inactive: 1.74%
13,C[N+]1=C2C=CC=CC=C2SC12C([N+](=O)[O-])=CC([N+](=O)[O-])=C[C-]2[N+](=O)[O-] (centres undefined),inactive: -1.82%
14,Nc1ccc([As](=O)(O)c2ccc(N)cc2)cc1,inactive: -3.99%
15,c1cc(-c2nn[nH]n2)ccc1-c1nn[nH]n1,inactive: 2.04%
16,CC1CCN(C(=O)Oc2c(Cl)cc(Cl)c3cccnc23)CC1,inactive: -0.55%
17,CN(C)C(=O)OCCc1n(C)cc[n+]1C,inactive: -3.15%
18,CC(C)=N/N=C(\N)N[N+](=O)[O-],inactive: 0.07%
19,CC(C)c1nc(Nc2ccccc2)n(P(=O)(N(C)C)N(C)C)n1,inactive: -7.63%
20,Cc1ccc(N/C(=N/P(=O)(N2CCOCC2)N2CCOCC2)N2CCOCC2)cc1,inactive: -2.34%
